23 molecules from PubChem BioAssay AID2451 (National Center for Advancing Translational Sciences (NCATS), 2010) can be followed below.

The chains behind the UniProt entries cited, without tags or fusion partners.
UniProt A8B2U2, whole entry: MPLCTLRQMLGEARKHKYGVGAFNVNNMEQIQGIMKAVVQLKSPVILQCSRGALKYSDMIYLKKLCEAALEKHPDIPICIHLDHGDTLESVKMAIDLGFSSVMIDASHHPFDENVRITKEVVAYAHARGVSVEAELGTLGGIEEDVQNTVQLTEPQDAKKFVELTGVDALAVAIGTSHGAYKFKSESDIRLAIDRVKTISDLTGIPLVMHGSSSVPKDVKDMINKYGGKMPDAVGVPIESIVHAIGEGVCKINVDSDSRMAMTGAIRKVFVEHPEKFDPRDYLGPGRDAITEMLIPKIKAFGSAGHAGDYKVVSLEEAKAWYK

Molecules are shown by their SMILES. The list shows a part of the results, in another mix than the full data. Some results for these compounds are left out of this collection, so the calls shown say nothing about other tests. Inconclusive results are not listed. Calls of active or inactive are those of the source. The call rests on the fitted dose curve; in most records, active means well fitted inhibition curve with a large enough effect; inconclusive means small, poorly fitted or top-dose-only effect, or effect the other way; inactive means flat fitted curve, though single readings scatter.
On the % scale 0 is the no-effect control and ±100 the full control effect.

The target in this experiment is Fructose-bisphosphate aldolase (Giardia intestinalis (strain ATCC 50803 / WB clone C6)) (UniProt A8B2U2). As to the kind of experiment: qHTS Assay for Inhibitors of Fructose-1,6-bisphosphate Aldolase from Giardia Lamblia. Further: nearly all actives have a fitted effect of over 55% in size. The settings on record: purified Giardia FBPA; at 59.6 µM (top of the series). On the technique in general: Quantitative high-throughput screening tests each substance at several concentrations.
On to `Cc1ccc(C(=O)NCC2(N3CCCCC3)CCCCC2)cc1`, for which the activity, negative = inhibition is inactive: 4.98%. As for `CCN(CC)CC(C)C(C)OC(=O)C(O)(c1ccccc1)c1ccccc1` (stereo not drawn), the activity, negative = inhibition was inactive: -0.867%.

Consider `COc1cc(SC)ccc1C(=O)NCC1(N(C)C)CCCCC1`, for which the activity, negative = inhibition was inactive: 1.67%.

Turning to `CC(C)N1C(=O)CC2(CCN(CCOC(=O)C(O)(c3ccccc3)c3ccccc3)CC2)C1=O`, the activity, negative = inhibition was inactive: 1.52%. Take `CN1[C@@H]2CC[C@H]1CC(OC(=O)C(O)(c1ccccc1)c1ccccc1)C2` (stereo partly drawn): the activity, negative = inhibition is inactive: -13.2%. For the molecule `O=C(NCC1(N2CCCCC2)CCCCC1)c1cc([N+](=O)[O-])ccc1Cl`, the activity, negative = inhibition was inactive: 1.26%. For the molecule `COc1ccc(C(=O)NCC2(N(C)C)CCCCC2)cc1`, the activity, negative = inhibition is inactive: 0.975%. `CCN1CCCC(OC(=O)C2(O)c3ccccc3C=Cc3ccccc32)C1` (stereo not drawn): the activity, negative = inhibition is inactive: 2.71%. For `Cc1cc(C(=O)NCC2(N3CCCCC3)CCCCC2)ccc1[N+](=O)[O-]`, the activity, negative = inhibition is inactive: 5.76%. In the case of `O=C(NCC1(N2CCCCC2)CCCCC1)c1cccc(Br)c1`, the activity, negative = inhibition was inactive: 4.48%. Consider `O=C(NCC1(N2CCCCC2)CCCCC1)c1cc(F)c(F)cc1Cl`, for which the activity, negative = inhibition was inactive: -6.48%. On to `Cc1ccccc1C(=O)NCC1(N2CCCCC2)CCCCC1`, for which the activity, negative = inhibition is inactive: 0.757%.

In the case of `CN(C)c1ccc(C(=O)NCC2(N(C)C)CCCCC2)cc1`, the activity, negative = inhibition is inactive: 3.93%. With `CN(C)C1CCCC1OC(=O)C(O)(c1ccccc1)c1ccccc1` (stereo not drawn), the activity, negative = inhibition is inactive: -7.3%. As for `O=C(NCC1(N2CCCCC2)CCCCC1)c1cccc(Cl)c1`, the activity, negative = inhibition was inactive: -8.29%.

`COc1cccc(C(=O)NCC2(N3CCCCC3)CCCCC2)c1`: the activity, negative = inhibition is inactive: 0.201%. With `COc1ccc(Cl)cc1C(=O)NCC1(N(C)C)CCCCC1`, the activity, negative = inhibition is inactive: 3.05%. For `COc1cc(C(=O)NCC2(N(C)C)CCCCC2)c([N+](=O)[O-])cc1OC`, the activity, negative = inhibition is inactive: -8.86%.

Consider `CN(C)C1(CNC(=O)c2ccc(Br)cc2)CCCCC1`, for which the activity, negative = inhibition is inactive: 11.9%. On to `CC(C)Oc1ccc(C(=O)NCC2(N(C)C)CCCCC2)cc1`, for which the activity, negative = inhibition was inactive: -9.06%. With `CN(C)c1cccc(C(=O)NCC2(N(C)C)CCCCC2)c1` the figure was inactive: -11.1%. Take `COc1ccc(Br)c(C(=O)NCC2(N3CCCCC3)CCCCC2)c1`: the activity, negative = inhibition was inactive: -2.37%.

With `O=C(OC1CN2CCC1CC2)C(CO)(c1ccccc1)c1ccccc1` (stereo not drawn), the activity, negative = inhibition is inactive: -7.49%.
